# System: recombinant luciferase-expressing CMV (Towne)
# Assay type: cell-based, human CMV
# Method: Human Foreskin Fibroblasts (HFF) passage 12–16 and human lung fibroblasts (HEL) passage 8–12 (from ATCC) were maintained in DMEM containing 10% fetal bovine serum and used for infections with the viruses.
# The CMV strains used for infections were the highly-passaged Towne virus, and a clinical isolate obtained from the urine of a neonate with congenital CMV infection (SB) and passaged once in tissue culture. […] Initial experiments were performed using a recombinant human CMV-green fluorescent protein (GFP) virus, derived from Towne strain. This virus has a 9-kb deletion from the dispensable unique short (US) region from US1 to US12, and instead contains the bacterial artificial chromosome sequences and a GFP expression cassette. […] A recombinant virus expressing luciferase reporter gene under the control of UL99 (pp28) late promoter was generated by insertion of the reporter gene between the US9 and US10 ORFs in the Towne genome.
# Towne-GFP, Towne–luciferase, and SB viruses were used in these assays. HFF or HEL were grown to subconfluent monolayers and infected with the CMV viruses at MOI 0.1 to 3. […] The concentration of each compound was calculated and adjusted by volume such that it was constant throughout the experiment. Following 90 minute incubation, media was replaced with fresh media containing the drug used. […]
smiles,measurement,setting,value
"Nc1nc(O)c2ncn(COC(CO)CO)c2n1 [GCV, Ganciclovir]",selectivity relative to the monomers,"comparison of SI, Table 1",approximately 10 times
same,Selectivity index (SI),ratio between CC50 and EC50,44±6.2
